Measured values as given in US11753373B2, “Protease inhibitors as antivirals” (priority 2021, dated 2023).

How the values were obtained:
[1] = extraction ratio, compound at 1 uM, SD rat liver microsomes 0.5 mg/mL
[2] = extraction ratio, compound at 1 uM, human liver microsomes 0.5 mg/mL
[3] = extraction ratio, compound at 1 uM, beagle dog liver microsomes 0.5 mg/mL
[4] = extraction ratio, compound at 1 uM, mouse liver microsomes 0.5 mg/mL

| SMILES | Liver Microsomal Stability (ER) SD rat ([1]; tested form: Na salt) | Liver Microsomal Stability (ER) Human ([2]; tested form: Na salt) | Liver Microsomal Stability (ER) Beagle dog ([3]; tested form: Na salt) | Liver Microsomal Stability (ER) Mouse ([4]; tested form: Na salt) | Liver Microsomal Stability (ER) SD rat [1] | Liver Microsomal Stability (ER) Human [2] | Liver Microsomal Stability (ER) Beagle dog [3] | Liver Microsomal Stability (ER) Mouse [4] |
| --- | --- | --- | --- | --- | --- | --- | --- | --- |
| CC(C)C[C@@H](NC(=O)c1cc2ccccc2[nH]1)C(=O)N[C@@H](C[C@@H]1CCNC1=O)C(O)S(=O)(=O)O (some centres unmarked) | 0.16 | 0.02 | −0.04 | 0.01 |  |  |  |  |
| CC1(C)[C@@H]2[C@@H](C(=O)N[C@@H](C#N)C[C@@H]3CCCNC3=O)N(C(=O)[C@@H](NC(=O)C(F)F)C3CC3)C[C@@H]21 |  |  |  |  | 0.01 | 0.09 | 0.05 | 0.07 |

Read-outs that look alike come from different tables or passages of the source.
